# Tested on: gastric mucosa
# Test: Gastric tolerance (ulcerogenic activity)
# Type: in vivo, male Wistar rats
# Conditions: 4 days; for Gastric Damage index: vehicle 8
# Procedure: This was studied by conducting tests of ulcerogenic activity in male Wistar rats, weighing 180 g on the average, in groups of 10 animals each. Three doses of each substance were given, and one group of animals was treated with vehicle only in a volume of 10 ml/kg bodyweight. Each dose was given orally for four consecutive days; on the fifth day, the rats were killed and autopsied. The ulcerogenic effect was assessed according to the following scale:
# (1) each hemorrhage point ≥1 mm was evaluated as 1 lesion
# (2) hemorrhage points smaller than 1 mm were counted as follows:
# (b) from 1 to 19:2 lesions
# (c) from 1 to 29:3 lesions
# (2) gastric mucosa irritation: 1
# (3) hemorrahge points <1 mm: 2
# (4) hemorrhage points between 1 and 3 mm: 3
# (5) hemorrhage points >3 mm: 4
# This scale was used to calculate the following gastric damage index: [formula]
compound,measurement,setting,value
"Cc1ccc(C(=O)c2ccc(CC(=O)O)n2C)cc1 [Na Tolmetin 2H2 O, 1-methyl-5-p-methylbenzoylpyrrol-2-acetic acid, reference compound]","Gastric Damage index, second figure (after +; difference from vehicle)",50 mg/kg oral,3
same,Gastric Damage index,50 mg/kg oral,11
same,"Gastric Damage index, second figure (after +; difference from vehicle)",100 mg/kg oral,8
same,Gastric Damage index,100 mg/kg oral,16
same,"Gastric Damage index, second figure (after +; difference from vehicle)",200 mg/kg oral,9
same,Gastric Damage index,200 mg/kg oral,17

# Source: patent US4618612A (Medosan Industrie Biochimiche Riunite S.p.A., priority 1983, dated 1986)
